Tested on: co-culture of HS-5 and Saos-2 cells
Test: Spheroid formation and live-dead assay in co-culture of HS-5 and Saos-2 cells
Assay type: cell-based
Settings: treated for 48 h; 1P:2 300 μM, ratio 1:1

## NapFFpYGGaa [1P]
  morphology of co-cultured HS-5 and Saos-2 cells: remain a 2D cell sheet

Reference: article PMC6456411 (Angewandte Chemie (International ed. in English), 2019)
